# scFv variants of Ab-14 (heavy chain) against a SARS-CoV-2 spike peptide

The target is the same throughout: PDVDLGDISGINAS, from the HR2 region of SARS-CoV-2 spike.

Each scFv is VH, three GGGGS repeats, VL, as in the parent Ab-14, and differs from it in the CDRs of the heavy chain only.
VH: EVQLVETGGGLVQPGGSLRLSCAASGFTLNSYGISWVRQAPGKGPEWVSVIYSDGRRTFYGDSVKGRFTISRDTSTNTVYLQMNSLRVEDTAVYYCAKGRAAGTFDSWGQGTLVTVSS
VL: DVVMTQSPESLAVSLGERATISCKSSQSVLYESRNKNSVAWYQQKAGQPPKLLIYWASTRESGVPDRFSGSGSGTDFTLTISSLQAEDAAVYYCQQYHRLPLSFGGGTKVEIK

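Phage display of a naive human antibody library on the peptide gave the parent. Variants in AAYL49 differ from the parent at up to three CDR positions; double and triple changes were sampled at random. Affinity was read by AlphaSeq, a pooled yeast mating assay with surface-displayed partners. Binding brings cells together so that they mate, and sequencing counts the barcode pairs among the diploids. A regression on co-assayed BCL2-family reference pairs converts the normalised counts of each replicate to an apparent Kd. The assay was run in three technical replicates.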

Substitutions are numbered in sequence along the VH above, starting at 1 (not Kabat).
Each Kd is an estimate from the mating assay, the geometric mean of the replicates in which the pair was seen; lower is stronger.
Where no diploid with the target was found in any replicate, the entry reads "no signal": below detection, most likely a poor binder, though not proof of it.
In this assay the parent's reference entry averaged 4.4 nM; its copy inside this library read 13 µM (one replicate of three).
Empty control strains, which show no peptide, gave a signal in 15% of pairings with library AAYL49; the median was 11 µM and 95% of these signals were weaker than 680 nM. No background was subtracted.

Kd,replicates with signal,changes
110 µM,1 of 3,F27I I34H S53G
4.0 µM,3 of 3,Y32M G61L G103Y
no signal,0 of 3,G33E G55H T58Q
35 nM,3 of 3,S31A D62Q S63N
no signal,0 of 3,S31V G99E D106A
2.0 µM,3 of 3,G55M T58S Y60L
no signal,0 of 3,S35L D54R R56Q
13 µM,1 of 3,Y60Q V64L
94 µM,1 of 3,I34D D54T Y60W
31 µM,1 of 3,S31T V50L S53Q
570 nM,3 of 3,T28I V64Y R100V
7.9 µM,1 of 3,S35E F59E D62P
no signal,0 of 3,V50I D54W F105L
no signal,0 of 3,G26E N30V D54T
no signal,0 of 3,I34K S35L F59T
no signal,0 of 3,S31D D62L T104N
16 µM,1 of 3,Y32G I34M T104Y
12 µM,1 of 3,V50D Y52W G61R
38 µM,1 of 3,T28Y F59R D106C
76 µM,1 of 3,Y32V F59V D106M
1.9 µM,1 of 3,G26K T28H D54R
no signal,0 of 3,T28I D62F T104M
no signal,0 of 3,V50T Y52H F59H
4.2 µM,1 of 3,F27Q R57Y A101M
no signal,0 of 3,V50Q F59N
6.4 µM,1 of 3,T28G Y52E T104I
no signal,0 of 3,V50Y S53L G61Q
38 µM,1 of 3,I34R F59L Y60N
no signal,0 of 3,V50L F59C D106R
no signal,0 of 3,N30R G55Q Y60A
80 nM,3 of 3,G26K L29M D62S
18 µM,1 of 3,N30F Y32V S53R
7.4 µM,1 of 3,N30V S53T F105A
1.8 µM,1 of 3,V50H D54H F59N
20 µM,2 of 3,S35F K65C G99V
6.0 nM,3 of 3,D106E S107D
1.6 µM,1 of 3,Y52W K65S
no signal,0 of 3,S31I V50K F59E
no signal,0 of 3,F59H A102L S107D
no signal,0 of 3,Y32W G33D K65L
1.4 µM,1 of 3,G26F S35Q F105K
360 nM,3 of 3,S31C S63N A101F
2.4 µM,1 of 3,I34F V50F Y60S
12 µM,1 of 3,S31P D54R
1.6 µM,3 of 3,G26S T28Y K65C
no signal,0 of 3,S35K V50K Y52D
17 µM,2 of 3,T28L S35F F105K
64 µM,1 of 3,G26K T58Q K65N
34 µM,3 of 3,G103K D106N
52 µM,1 of 3,S35W R57L T58C
1.6 µM,3 of 3,T58A F59I D106H
35 µM,1 of 3,T58D G103T
6.6 µM,1 of 3,V50M F59R D62A
no signal,0 of 3,D62I F105D S107N
no signal,0 of 3,G55S F105K
13 nM,3 of 3,R100S A102P S107A
no signal,0 of 3,G33S V50A K65N
no signal,0 of 3,I51L D54V R56S
no signal,0 of 3,D54A S63D A101F
11 µM,1 of 3,G26E V50Y F59V
1.9 µM,1 of 3,Y32H G61M A102M

Excerpt, the first 6 entries:

changes	Kd	replicates with signal
F27I I34H S53G	110 µM	1 of 3
Y32M G61L G103Y	4.0 µM	3 of 3
G33E G55H T58Q	no signal	0 of 3
S31A D62Q S63N	35 nM	3 of 3
S31V G99E D106A	no signal	0 of 3
G55M T58S Y60L	2.0 µM	3 of 3

From the AlphaSeq antibody data of Engelhart et al. 2022 (doi:10.1038/s41597-022-01779-4), copy in the FLAb collection.